# Cyclic peptide permeability, from CycPeptMPDB

Data: CycPeptMPDB; original report Townsend et al. 2020, doi:10.26434/chemrxiv.13335941.v1.

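Lipid, pH, incubation time, direction and concentration are not recorded in the data file. The list need not hold all peptides of the study. Entries at the database's floor value (log10 P of -10) are not listed.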

PAMPA is the parallel artificial membrane permeability assay, which has no cells and reads passive diffusion. Permeability is in 10^-6 cm/s, converted from the database's log10 values; higher is more permeable.

CC(C)C[C@@H]1NC(=O)[C@H](C)NC(=O)[C@H](Cc2ccccc2)NC(=O)[C@@H](CC(C)C)N(C)C(=O)[C@H]2CCCN2C(=O)[C@H](CC(C)C)N(C)C1=O has PAMPA 3.9 × 10^-6 cm/s. The entry for CC(C)C[C@@H]1NC(=O)[C@@H](C)N(C)C(=O)[C@@H]2CCCN2C(=O)[C@H](Cc2ccccc2)NC(=O)[C@@H](CC(C)C)N(C)C(=O)[C@@H]2CCCN2C(=O)[C@@H](CC(C)C)N(C)C1=O lists PAMPA 2.1 × 10^-6 cm/s. Listed for CC(C)C[C@@H]1NC(=O)[C@@H]2CCCN2C(=O)C[C@H](Cc2ccccc2)NC(=O)[C@@H](CC(C)C)N(C)C(=O)[C@H](C)N(C)C(=O)[C@H](Cc2ccccc2)NC1=O: PAMPA 0.66 × 10^-6 cm/s. For CC(C)C[C@@H]1NC(=O)[C@@H]2CCCN2C(=O)[C@@H](CC(C)C)N(C)C(=O)[C@H](CC(C)C)NC(=O)[C@@H](C)N(C)C(=O)[C@H](Cc2ccccc2)NC1=O the data give PAMPA 9.5 × 10^-6 cm/s.

For CC(C)C[C@@H]1NC(=O)[C@H]2CCCN2C(=O)[C@@H](CC(C)C)N(C)C(=O)[C@@H](CC(C)C)NC(=O)[C@@H](C)N(C)C(=O)[C@@H]2CCCN2C(=O)[C@H](Cc2ccccc2)NC1=O the data give PAMPA 0.59 × 10^-6 cm/s. CC(C)C[C@@H]1NC(=O)[C@@H](CC(C)C)NC(=O)[C@@H](C)N(C)C(=O)[C@@H]2CCCN2C(=O)[C@H](Cc2ccccc2)NC(=O)CN(Cc2ccccc2)C(=O)[C@H]2CCCN2C1=O has PAMPA 2.2 × 10^-6 cm/s. For CC(C)C[C@@H]1NC(=O)[C@H](CC(C)C)N(C)C(=O)[C@@H](C)N(C)C(=O)[C@@H]2CCCN2C(=O)[C@H](Cc2ccccc2)NC(=O)CN(Cc2ccccc2)C(=O)[C@H]2CCCN2C1=O the data give PAMPA 4 × 10^-6 cm/s. For CC(C)C[C@@H]1NC(=O)[C@@H](CC(C)C)N(C)C(=O)C[C@H](Cc2ccccc2)NC(=O)[C@H]2CCCN2C(=O)[C@H](Cc2ccccc2)NC(=O)[C@H](CC(C)C)N(C)C(=O)[C@@H]2CCCN2C1=O the data give PAMPA 3 × 10^-6 cm/s.

For CC(C)C[C@@H]1NC(=O)[C@H]2CCCN2C(=O)CN(Cc2ccccc2)C(=O)[C@H](CC(C)C)NC(=O)C[C@H](Cc2ccccc2)NC(=O)[C@@H]2CCCN2C(=O)[C@H](Cc2ccccc2)NC1=O the data give PAMPA 2.3 × 10^-6 cm/s. For CC(C)C[C@@H]1C(=O)N[C@@H](Cc2ccccc2)C(=O)N[C@@H](C)C(=O)N[C@H](CC(C)C)C(=O)N(Cc2ccccc2)CC(=O)N2CCC[C@H]2C(=O)N1C the data give PAMPA 1.2 × 10^-6 cm/s. The entry for CC(C)C[C@@H]1C(=O)N(C)[C@@H](CC(C)C)C(=O)N2CCC[C@H]2C(=O)N[C@H](CC(C)C)C(=O)N[C@@H](Cc2ccccc2)C(=O)N2CCC[C@H]2C(=O)N(C)[C@@H](C)C(=O)N1C lists PAMPA 0.31 × 10^-6 cm/s. Listed for CC(C)C[C@@H]1NC(=O)[C@@H](C)NC(=O)[C@H]2CCCN2C(=O)[C@H](Cc2ccccc2)NC(=O)CN(Cc2ccccc2)C(=O)[C@@H]2CCCN2C(=O)[C@@H](CC(C)C)N(C)C1=O: PAMPA 1.9 × 10^-6 cm/s.

CC(C)C[C@@H]1C(=O)N[C@@H](Cc2ccccc2)C(=O)N2CCC[C@H]2C(=O)N[C@@H](Cc2ccccc2)CC(=O)N[C@H](CC(C)C)C(=O)N[C@@H](Cc2ccccc2)CC(=O)N2CCC[C@H]2C(=O)N1C has PAMPA 0.3 × 10^-6 cm/s.

2 of these entries, quoted again:

SMILES	PAMPA (10^-6 cm/s)
CC(C)C[C@@H]1NC(=O)[C@@H](C)N(C)C(=O)[C@@H]2CCCN2C(=O)[C@H](Cc2ccccc2)NC(=O)[C@@H](CC(C)C)N(C)C(=O)[C@@H]2CCCN2C(=O)[C@@H](CC(C)C)N(C)C1=O	2.1
CC(C)C[C@@H]1C(=O)N[C@@H](Cc2ccccc2)C(=O)N2CCC[C@H]2C(=O)N[C@@H](Cc2ccccc2)CC(=O)N[C@H](CC(C)C)C(=O)N[C@@H](Cc2ccccc2)CC(=O)N2CCC[C@H]2C(=O)N1C	0.3